The source of these data is patent US10508086B2 (CANCER RESEARCH TECHNOLOGY LIMITED, priority 2014, dated 2019).

Sequences of proteins named here, by UniProt entry; tags and fusion partners are left off.
UniProt Q86W56, whole entry: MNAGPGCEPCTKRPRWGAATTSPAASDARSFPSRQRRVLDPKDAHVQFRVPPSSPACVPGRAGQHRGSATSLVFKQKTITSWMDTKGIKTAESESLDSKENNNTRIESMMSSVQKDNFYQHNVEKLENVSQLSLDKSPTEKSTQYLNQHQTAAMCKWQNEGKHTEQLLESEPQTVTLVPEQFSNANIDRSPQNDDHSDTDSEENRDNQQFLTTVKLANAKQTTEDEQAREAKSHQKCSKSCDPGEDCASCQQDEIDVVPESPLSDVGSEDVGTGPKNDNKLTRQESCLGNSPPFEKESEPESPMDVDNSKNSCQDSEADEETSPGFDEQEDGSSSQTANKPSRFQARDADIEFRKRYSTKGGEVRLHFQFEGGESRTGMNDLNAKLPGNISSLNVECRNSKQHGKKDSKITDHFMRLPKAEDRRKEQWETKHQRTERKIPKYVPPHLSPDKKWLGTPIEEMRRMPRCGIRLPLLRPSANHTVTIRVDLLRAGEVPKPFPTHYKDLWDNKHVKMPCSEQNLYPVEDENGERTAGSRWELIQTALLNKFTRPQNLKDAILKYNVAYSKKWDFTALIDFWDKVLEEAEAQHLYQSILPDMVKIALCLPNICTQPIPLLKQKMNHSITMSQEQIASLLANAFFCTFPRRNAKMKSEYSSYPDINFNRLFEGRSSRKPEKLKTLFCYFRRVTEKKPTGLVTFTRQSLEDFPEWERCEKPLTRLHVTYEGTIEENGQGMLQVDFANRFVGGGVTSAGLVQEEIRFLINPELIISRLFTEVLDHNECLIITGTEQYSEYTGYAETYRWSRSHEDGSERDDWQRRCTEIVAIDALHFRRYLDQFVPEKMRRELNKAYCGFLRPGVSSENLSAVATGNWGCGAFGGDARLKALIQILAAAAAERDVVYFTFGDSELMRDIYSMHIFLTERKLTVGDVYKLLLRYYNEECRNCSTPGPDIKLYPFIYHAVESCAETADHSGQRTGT

The target of this assay is PARG in HeLa cell line (Homo sapiens (Human), UniProt Q86W56). Nature of the assay: PARG cell assay (nuclear PAR chains after MMS, immunofluorescence). Particulars: read-out: PARG Cell IC50 Geomean; HeLa cells, MMS 50 μg/mL. The procedure:
This method is based on the detection of endogenous levels of poly (ADP) ribose chains present in the nucleus of HeLa cell line using indirect immunofluorescence. MMS stimulation increases PAR chains for up to 25 mins. After that point, PARG is active and breaks down the PAR chains, until by one hour after stimulation no PAR chains are detectable. Inhibition of PARG maintains PAR chains.
Briefly, following compound treatment and treatment with the DNA damaging agent methylmethanesulfonate (MMS), the cell monolayer is fixed, then permeabilised and incubated with a mouse monoclonal antibody raised against multimers of poly(ADP) ribose. After an overnight incubation, excess antibody is removed by washing and an Alexafluor 488-linked secondary antibody which recognises the mouse monoclonal is added together with a nuclear stain (Hoechst 33342). Images of the cells are then captured and analysed on a High Content Screening platform and the total intensity of the nuclear fluorescent signal at […] is quantified.
HeLa cells, seeded in 384-well plates, at 4000/well in 30 μL RPMI 1640 media, supplemented with 10% FBS and 2 mM Glutamax, were incubated overnight at 37° C., 5% CO2.
The following day, cells were dosed in quadruplicate with compound (10 point dose response) and incubated for 1 h at 37° C., 5% CO2. […]

Molecules are shown by their SMILES.

With `Cc1nnc(-n2c(=O)n(Cc3cn[nH]c3)c3ccc(S(=O)(=O)NC4(C)CC4)cc32)s1`, the IC50 (usually the concentration that inhibits the measured activity by half) worked out at 508 nM.
